# Measured values reported in PubChem BioAssay AID504861 (Broad Institute, 2011).
# The list shows a part of the results, in another mix than the full data. Potency and affinity values are given separately. Activity calls are given as the source filed them.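 The calls were made as follows: active = compounds lowering cell viability signal with fitted half-maximal concentration at most ten times their highest tested concentration; inconclusive = flat fit with 30 to 70% signal loss, or poor fit; inactive = the rest.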
# Experiment: HEK293T cell viability reduction, dose response, cytotoxicity control for LMP1 NF-kB inhibitor project, CellTiter-Glo luminescence, cherry-picks (AID 504861)
# Conditions: CellTiter-Glo ATP luminescence, 48 h; at 26 µM (top of the series)
row,Structure (SMILES),"activity change, negative = cytotoxicity"
1,N#C/C(=C\c1ccc(N(CCBr)CCBr)cc1)C(N)=O,inactive: -13.9%
